# Binding of CDR-mutated scFvs to a peptide of the spike HR2 region

From the AlphaSeq antibody data of Engelhart et al. 2022 (doi:10.1038/s41597-022-01779-4), copy in the FLAb collection.

Target: peptide PDVDLGDISGINAS, taken from heptad repeat 2 (HR2) of SARS-CoV-2 spike.

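The parent was found by panning a naive human phage display library on the peptide. Variants in AAYL49 differ from the parent at up to three CDR positions; double and triple changes were sampled at random. AlphaSeq pools MATa yeast showing the antibodies with MATalpha yeast showing the peptide. Mating (16 h, 30 °C) was followed by selection of diploids and sequencing of their barcodes. The ratio of observed to expected reads was calibrated, replicate by replicate, on BCL2-family standards whose Kd was known from biolayer interferometry. Each pool was mated in three replicate cultures.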

Ab-14 is the parent antibody, in scFv form: VH, then three GGGGS repeats, then VL. The light chain is unchanged in all variants.
VH: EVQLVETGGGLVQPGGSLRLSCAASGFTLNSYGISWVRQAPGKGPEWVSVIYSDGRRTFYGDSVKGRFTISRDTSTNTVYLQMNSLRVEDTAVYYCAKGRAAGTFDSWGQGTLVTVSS
VL: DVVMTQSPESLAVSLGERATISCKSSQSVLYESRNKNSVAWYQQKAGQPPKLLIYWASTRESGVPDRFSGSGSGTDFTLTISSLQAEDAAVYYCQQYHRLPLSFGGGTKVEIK

The parent's heavy chain CDRs are GFTLNSYGIS, VIYSDGRRTFYGDSVK, GRAAGTFDS; each variant's own CDRs replace them letter for letter.
This list gathers variants with a substitution at G55 (VH, numbered from residue 1).
Values are apparent Kd, the geometric mean of the replicates that gave a signal; lower means stronger binding.
An entry "nd" has no value in the source: the pair was not observed among the diploids in any replicate. This suggests poor binding but is not conclusive.
As a blank, each scFv also met three strains without target: over library AAYL49, 15% of these pairings were detected, typically at 11 µM and seldom below 680 nM. For each scFv, signals with the empty controls are counted beside the result.

The variant GFTLNSYGIS, VIYSDVSRTNYGDSVK, GRAAGTFDS showed 91 µM (3 of 3 replicates; controls 1 of 9).
The variant GFTLNSYGIS, RIYGDSRRTFYGDSVK, GRAAGTFDS showed 9.3 µM (2 of 3 replicates; controls 3 of 9).
The variant GFTLNSYGIS, VIYSDRRRTDYGDSVH, GRAAGTFDS showed 43 µM (3 of 3 replicates; controls 8 of 9).
The variant GFTLNSYGIS, VIYSDRRRTKYGDSVK, GRAQGTFDS showed nd (0 of 3 replicates; controls 0 of 9).
The variant GFTLQSYGIS, VIYSDWRRTFYGDSVY, GRAAGTFDS showed 260 µM (1 of 3 replicates; controls 0 of 9).
The variant GFTLNSYGIS, VIYSDERRTFYGDSVK, GRAAGTFDS showed nd (0 of 3 replicates; controls 0 of 9).
The variant GFTLNSYGIS, VIYSDWRRTFLGVSVK, GRAAGTFDS showed 210 µM (1 of 3 replicates; controls 4 of 9).
The variant GFTLNSRGIS, VIYSDQRRTFYGDSVK, GRAHGTFDS showed nd (0 of 3 replicates; controls 0 of 9).
The variant GFTLNSYGIS, VINSDPRRTFYGDSVK, GRAAGTFDH showed 230 µM (1 of 3 replicates; controls 2 of 9).
The variant GFTLNSYGIS, VIYSDTRRTFYGDSVR, GRWAGTFDS showed nd (0 of 3 replicates; controls 0 of 9).
The variant GFTLNSYGIS, VIYSDHRRTFYGESVK, GRAAGTFDS showed 1.6 µM (1 of 3 replicates; controls 4 of 9).
The variant GFTLNSYGIS, VIYSDFRRTFYGDSCK, GRAAGTFDK showed 13 µM (2 of 3 replicates; controls 2 of 9).
The variant GFTLNSYGIS, RIYSDVRRTFYGCSVK, GRAAGTFDS showed nd (0 of 3 replicates; controls 2 of 9).
The variant GFTLNSYGIS, VIYSDDRRTFYGDSEK, GRGAGTFDS showed nd (0 of 3 replicates; controls 4 of 9).
The variant GFTLNSYGIS, VIYSDNRRTFYGDSVK, GRAAGTFDS showed 5.7 µM (1 of 3 replicates; controls 4 of 9).
The variant GFTLNSYGIS, VIYSDWRRTFYIDSVK, VRAAGTFDS showed nd (0 of 3 replicates; controls 0 of 9).
The variant GFKLNSPGIS, VIYSDLRRTFYGDSVK, GRAAGTFDS showed nd (0 of 3 replicates; controls 2 of 9).
The variant GFTLNSYGIS, VIYSDNRRTYYGDSHK, GRAAGTFDS showed 100 µM (1 of 3 replicates; controls 0 of 9).
The variant GFTLNSYGIS, VIYSDVRRTFYGDSVK, GRAAGTFDS showed nd (0 of 3 replicates; controls 3 of 9).
The variant GFTLNSYGIS, VIYSDMRRTFYGDSVK, GRAAGNFDF showed nd (0 of 3 replicates; controls 0 of 9).
The variant GFTLNSYGIS, VICSDRRRTFYGDSVK, GRAAGTFDS showed 720 µM (1 of 3 replicates; controls 4 of 9).
The variant GFTLNSYGIS, VIYSDIRRTFYGDSVK, GRAAGTEPS showed 410 µM (3 of 3 replicates; controls 7 of 9).
The variant GFTLNSYGIS, VIYSDHPRTWYGDSVK, GRAAGTFDS showed nd (0 of 3 replicates; controls 0 of 9).
The variant GFTLNSYGIS, VINSDLRRTFYGDSVK, GRGAGTFDS showed nd (0 of 3 replicates; controls 0 of 9).
The variant GVTLNSIGIS, VIYSDRRRTFYGDSVK, GRAAGTFDS showed 3.3 µM (2 of 3 replicates; controls 0 of 9).
The variant GFTLNSYGIS, VIYSDVRRTFYGDDVK, GRQAGTFDS showed 25 µM (1 of 3 replicates; controls 0 of 9).
The variant GFTLLSYGCS, VIYSDPRRTFYGDSVK, GRAAGTFDS showed 39 µM (1 of 3 replicates; controls 2 of 9).
The variant GFTLNSYGIS, VIYSDLRRDFYGDSVK, GDAAGTFDS showed nd (0 of 3 replicates; controls 3 of 9).
The variant GFTLNSYGIS, VIYSDHRRTFYGQSVK, GRAAGNFDS showed nd (0 of 3 replicates; controls 1 of 9).
The variant GFTLNSYGIS, MIYSDIRRTFYGDSVK, ARAAGTFDS showed nd (0 of 3 replicates; controls 0 of 9).
The variant GFTLNTYGIS, VIYSDSKRTFYGDSVK, GRAAGTFDS showed 15 µM (3 of 3 replicates; controls 3 of 9).
The variant GFTLNSYGIS, VIYSDVRRTFYGDAVK, GRAAGTFDH showed 41 µM (1 of 3 replicates; controls 1 of 9).
The variant GFTLNSYGIS, VIYSDCRRTFYKDSVK, GRAAGTFAS showed nd (0 of 3 replicates; controls 0 of 9).
The variant DFTLNSYGIS, KIYSDPRRTFYGDSVK, GRAAGTFDS showed 18 µM (1 of 3 replicates; controls 0 of 9).
The variant GFTLNSVGIS, VIYSDFRRTFYGDSVK, GRKAGTFDS showed nd (0 of 3 replicates; controls 0 of 9).
The variant GFTLNSYGIS, VIYSDMRRTFYGDSVL, YRAAGTFDS showed nd (0 of 3 replicates; controls 0 of 9).
The variant GFTLNSYGIS, VIYSIQRRTPYGDSVK, GRAAGTFDS showed nd (0 of 3 replicates; controls 0 of 9).
The variant GFTLNSYGIS, VIYSDTRRQFYGDSVK, GRAAGTFDS showed nd (0 of 3 replicates; controls 0 of 9).
The variant GFTLFSYGIS, VIYSDPRRTFYGDSVK, GRAAGTFDS showed nd (0 of 3 replicates; controls 0 of 9).
The variant GFTLNSYHIS, VIYSDPRRTFYGDSVK, GEAAGTFDS showed nd (0 of 3 replicates; controls 0 of 9).
The variant GFTLNSYGIS, VKYSDDRRTNYGDSVK, GRAAGTFDS showed 13 µM (2 of 3 replicates; controls 1 of 9).
The variant GFTLNSYGIS, VIYSDARRTFYGDSVK, GRCAGTFDS showed 26 µM (2 of 3 replicates; controls 2 of 9).
The variant GFTLNSYGIS, SIYSDLRRTFYGDSVK, GRAAGTLDS showed 56 µM (1 of 3 replicates; controls 3 of 9).
The variant GVTLNSYGIS, VIYSDVSRTFYGDSVK, GRAAGTFDS showed 29 µM (3 of 3 replicates; controls 4 of 9).
The variant GFTLNCRGIS, VIYSDHRRTFYGDSVK, GRAAGTFDS showed 860 nM (1 of 3 replicates; controls 0 of 9).
The variant GFTLNSYGIS, VIYSDPRRTEGGDSVK, GRAAGTFDS showed nd (0 of 3 replicates; controls 1 of 9).

The first 7 entries again:

| CDR-H1 | CDR-H2 | CDR-H3 | Kd (apparent) | replicates with signal | signal with controls |
|---|---|---|---|---|---|
| GFTLNSYGIS | VIYSDVSRTNYGDSVK | GRAAGTFDS | 91 µM | 3 of 3 | 1 of 9 |
| GFTLNSYGIS | RIYGDSRRTFYGDSVK | GRAAGTFDS | 9.3 µM | 2 of 3 | 3 of 9 |
| GFTLNSYGIS | VIYSDRRRTDYGDSVH | GRAAGTFDS | 43 µM | 3 of 3 | 8 of 9 |
| GFTLNSYGIS | VIYSDRRRTKYGDSVK | GRAQGTFDS | nd | 0 of 3 | 0 of 9 |
| GFTLQSYGIS | VIYSDWRRTFYGDSVY | GRAAGTFDS | 260 µM | 1 of 3 | 0 of 9 |
| GFTLNSYGIS | VIYSDERRTFYGDSVK | GRAAGTFDS | nd | 0 of 3 | 0 of 9 |
| GFTLNSYGIS | VIYSDWRRTFLGVSVK | GRAAGTFDS | 210 µM | 1 of 3 | 4 of 9 |